To fix the notation:
B1: FPOX derived from Aspergillus oryzae RIB40 (AoFPOX), tagged with four histidine residues at the N-terminal (protein)
chain: HHHHMTVTKSSSILIIGAGTWGASTALHLGRRGYTNVTVLDPYTVPSAISAGNDVNKIISSGQYSNKKDEIEVNEILAEEAFKGWTTDPLFKPYYHDTGVVMSACSSAGLDRLGIRVRPEEEPDVSEVTKPEHFRQLAPAVLKGNFPGWRGYHIRSNAGWAHARNALVAAIREAEKLGVKFVTGTQGRVITLIFENNDVKGAVTADGKIWRAEQTVLCAGANAAQFLDFKDQLRPTAWTLAHIRLKPEERALYKNLPVIFNIEKGFFFEPDEERGEIKICDEHPGYTNMVKSADGHLTSLPFEKTQIPKESEARVRALLSETMPQLADRPFSFARVCWCADTANREFIIDRHPEHPSLVLGCGASGRGFKYLPSIGNLIVDAIEDKVPEKVHKLTRWSPDIAVDRKWRDTLGRFGGPNRVMDFHDVKEWTNVQNKDTAKL
B2: FPOX-45 (protein)
chain: MAPRANTKIIVVGGGGTMGSSTALHLLRAGYTPSNITVLDTYPIPSAQSAGYDLNKVFGISGANKHDLQLSLEAFDMWKNDPLFKPFFHNVGQMDVSSTEEGIKRLRRRYQSLLRAGIGLEKTNFLLESEDEILAKAPHFTREQIKGWKGLFCGDGGWLAAAKAINAIGQFLKEQGVKFGFGEAGTFKKPLFADADEKTCIGVETVDGTKYYADKVVLAAGAWSSTLVDLEEQCVSKAWVFAHIQLTPAEAAAYKNTPVIYDGDYGFFIEPDENGIIKVCDEFPGFTHFKMHQPYGSPVPKLISVPRSHAKHPTDTYPHASEVTIKKAINRFLPRFNDKELFNRAMCWCTDTADSNLLVCEHPRWKGFYLATGDSGHSFKLLPNIGKHVVELLEGRLESVFKDAWRWRPGSGDALKSRRAAPAKDLADMPGWRNEAKM
B3: FPOX-30 (protein)
chain: B2 chain with V57I, D95E, R105K, R108K, S355A
B4: FPOX-33 (protein)
chain: B2 chain with S34T, V57I, D95E, S355A
B5: FPOX-19 (protein)
chain: B2 chain with V57I, H66P, F75L, R105K, R108K, S355A
B6: FPOX-29 (protein)
chain: B2 chain with V57I, H66P, R105K, R108K
B7: FPOX-27 (protein)
chain: B2 chain with V57I, H66P, R108K, S355A
B8: FPOX-18 with additional mutation Q93E (protein)
chain: B2 chain with V57I, H66P, S71Y, F75L, Q93E, R105K, R108M, R115D, S355A
B9: FPOX-22 (protein)
chain: B2 chain with S34T, V57I, H66P, R105K, R108K, S355A
B10: FPOX-18C (protein)
chain: B2 chain with V57I, H66P, F75L, R105K, R108M, R115N, S355A
B11: FPOX-24 (protein)
chain: B2 chain with H66P, R105K, R108K, S355A
B12: FPOX-31 (protein)
chain: B2 chain with V57I, D95E, R108K, S355A
B13: FPOX-23 (protein)
chain: B2 chain with Y52H, V57I, H66P, R105K, R108K, S355A
B14: FPOX-34 (protein)
chain: B2 chain with Y52H, V57I, D95E, S355A
B15: FPOX-46 (protein)
chain: B2 chain with V57I, D95E
B16: FPOX-18 (protein)
chain: B2 chain with V57I, H66P, S71Y, F75L, R105K, R108M, R115D, S355A
B17: FPOX-17 (protein)
chain: B2 chain with V57I, G62L, A63R, H66P, S71Y, F75L, R105K, R108M, R115D, S355A
B18: FPOX-17 with additional mutation R63A (protein)
chain: B2 chain with V57I, G62L, H66P, S71Y, F75L, R105K, R108M, R115D, S355A
B19: FPOX-26 (protein)
chain: B2 chain with V57I, H66P, D95E, R105K, R108K, S355A
B20: FPOX-18D (protein)
chain: B2 chain with V57I, H66P, F75L, R105K, R108M, S355A
B21: FPOX-25 (protein)
chain: B2 chain with V57I, R105K, R108K, S355A
B22: FPOX-28 (protein)
chain: B2 chain with V57I, H66P, R105K, S355A
B23: FPOX-16 with additional mutation R63A (protein)
chain: B2 chain with V57I, S61G, G62L, H66P, S71Y, F75L, R105K, R108M, R115D, S355A
B24: FPOX-21 (protein)
chain: B2 chain with V57I, H66P, R105K, R108K, S355A
B25: FPOX-18 with additional mutation F267Y (protein)
chain: B2 chain with V57I, H66P, S71Y, F75L, R105K, R108M, R115D, F267Y, S355A
B26: FPOX-15 mutant, position 61 Pro (protein)
chain: MAPRANTKIIVVGGGGTMGSSTALHLLRAGYTPSNITVLDTYPIPSAQSAGYDLNKIFGIPLRNKPDLQLYLEALDMWKNDPLFKPFFHNVGQMDVSSTEEGIKKLRMRYQSLLDAGIGLEKTNFLLESEDEILAKAPHFTREQIKGWKGLFCGDGGWLAAAKAINAIGQFLKEQGVKFGFGEAGTFKKPLFADADEKTCIGVETVDGTKYYADKVVLAAGAWSSTLVDLEEQCVSKAWVFAHIQLTPAEAAAYKNTPVIYDGDYGFFIEPDENGIIKVCDEFPGFTHFKMHQPYGSPVPKLISVPRSHAKHPTDTYPHASEVTIKKAINRFLPRFNDKELFNRAMCWCTDTADANLLVCEHPRWKGFYLATGDSGHSFKLLPNIGKHVVELLEGRLESVFKDAWRWRPGSGDALKSRRAAPAKDLADMPGWRNEAKM
B27: FPOX-16 with additional mutation R63G (protein)
chain: B26 chain with P61G, R63G
B28: FPOX-16 (protein)
chain: B26 chain with P61G
B29: FPOX-16 with additional mutation R63P (protein)
chain: B26 chain with P61G, R63P
B30: FPOX-15 mutant, position 61 Asp (protein)
chain: B26 chain with P61D
B31: FPOX-15 mutant, position 61 Asn (protein)
chain: B26 chain with P61N
B32: FPOX-15 mutant, position 61 Glu (protein)
chain: B26 chain with P61E
B33: FPOX-15 mutant, position 61 Gln (protein)
chain: B26 chain with P61Q

Changes are numbered by the printed parent chain. In names and notes the source's numbering stands.

This data set has as its target T1, α-glycated hexapeptide Fru-Val-His-Leu-Thr-Pro-Glu.
T1 chain: VHLTPE
On to B1, for which the Specific activity (mU/mg) is 0.12 mU/mg.
With B2, the Activity ratio with respect to FPOX-15 (FPOX-15 defined as 1) amounted to 24800 and the Activity ratio with respect to FPOX-19 (FPOX-19 defined as 1) was determined as 4.6.
On to B3, for which the Activity ratio with respect to FPOX-15 (FPOX-15 defined as 1) turned out to be 12700 and the Activity ratio with respect to FPOX-19 (FPOX-19 defined as 1) turned out to be 2.3.
For the protein B4, the Activity ratio with respect to FPOX-15 (FPOX-15 defined as 1) amounted to 17000 and the Activity ratio with respect to FPOX-19 (FPOX-19 defined as 1) worked out at 3.1.
For the protein B5, the Activity ratio with respect to FPOX-15 (FPOX-15 defined as 1) is 5440, the Activity ratio with respect to FPOX-18 (FPOX-18 defined as 1) is 28.6, the Activity ratio with respect to FPOX-19 (FPOX-19 defined as 1) was 1 and the Specific activity (mU/mg) came out at 19.6 mU/mg.
Regarding B6, the Activity ratio with respect to FPOX-15 (FPOX-15 defined as 1) turned out to be 17700 and the Activity ratio with respect to FPOX-19 (FPOX-19 defined as 1) is 3.3.
For B7 the same measures were 10600 and 2.
Turning to B8, the Activity ratio with respect to FPOX-15 (FPOX-15 defined as 1) worked out at 257 and the Activity ratio with respect to FPOX-18 (FPOX-18 defined as 1) amounted to 1.3.
B9: the Activity ratio with respect to FPOX-15 (FPOX-15 defined as 1) was 8490 and the Activity ratio with respect to FPOX-19 (FPOX-19 defined as 1) amounted to 1.6.
Regarding B10, the Activity ratio with respect to FPOX-15 (FPOX-15 defined as 1) came to 2920 and the Activity ratio with respect to FPOX-18 (FPOX-18 defined as 1) came to 15.3.
For the protein B11, the Activity ratio with respect to FPOX-15 (FPOX-15 defined as 1) was 9190 and the Activity ratio with respect to FPOX-19 (FPOX-19 defined as 1) came out at 1.7.
For B12 the same measures were 14100 and 2.6.
For B13 the same measures were 8490 and 1.6.
For B14 the same measures were 15600 and 2.9.
Regarding B15, the Activity ratio with respect to FPOX-15 (FPOX-15 defined as 1) came to 12700 and the Activity ratio with respect to FPOX-19 (FPOX-19 defined as 1) turned out to be 2.3.
On to B16, for which the Activity ratio with respect to FPOX-15 (FPOX-15 defined as 1) was determined as 190 and the Activity ratio with respect to FPOX-18 (FPOX-18 defined as 1) came to 1.
Take B17: the Activity ratio (glycated hexapeptide oxidase activity, FPOX-15 defined as 1) was 67.7; the Activity ratio with respect to FPOX-15 (FPOX-15 defined as 1) was 67.7; the Activity ratio with respect to FPOX-17 (FPOX-17 defined as 1) is 1.
Turning to B18, the Activity ratio with respect to FPOX-15 (FPOX-15 defined as 1) was 178 and the Activity ratio with respect to FPOX-17 (FPOX-17 defined as 1) was determined as 2.6.
Consider B19, for which the Activity ratio with respect to FPOX-15 (FPOX-15 defined as 1) was determined as 9900 and the Activity ratio with respect to FPOX-19 (FPOX-19 defined as 1) is 1.8.
Consider B20, for which the Activity ratio with respect to FPOX-15 (FPOX-15 defined as 1) amounted to 3610 and the Activity ratio with respect to FPOX-18 (FPOX-18 defined as 1) stood at 19.
Consider B21, for which the Activity ratio with respect to FPOX-15 (FPOX-15 defined as 1) was 12700 and the Activity ratio with respect to FPOX-19 (FPOX-19 defined as 1) was found to be 2.3.
As for B22, the Activity ratio with respect to FPOX-15 (FPOX-15 defined as 1) was 9900 and the Activity ratio with respect to FPOX-19 (FPOX-19 defined as 1) worked out at 1.8.
Regarding B23, the Activity ratio with respect to FPOX-15 (FPOX-15 defined as 1) came out at 171 and the Activity ratio with respect to FPOX-16 (FPOX-16 defined as 1) turned out to be 2.7.
On to B24, for which the Activity ratio with respect to FPOX-15 (FPOX-15 defined as 1) came to 7000.
On to B25, for which the Activity ratio with respect to FPOX-15 (FPOX-15 defined as 1) amounted to 282 and the Activity ratio with respect to FPOX-18 (FPOX-18 defined as 1) stood at 1.5.
For the protein B26, the Activity ratio (glycated hexapeptide oxidase activity, FPOX-15 defined as 1) was determined as 18.
B27: the Activity ratio with respect to FPOX-15 (FPOX-15 defined as 1) turned out to be 128 and the Activity ratio with respect to FPOX-16 (FPOX-16 defined as 1) was 2.
B28: the Activity ratio (glycated hexapeptide oxidase activity, FPOX-15 defined as 1) was 63.9; the Activity ratio with respect to FPOX-15 (FPOX-15 defined as 1) came to 63.9; the Activity ratio with respect to FPOX-16 (FPOX-16 defined as 1) was determined as 1.
As to B29, the Activity ratio with respect to FPOX-15 (FPOX-15 defined as 1) came out at 143 and the Activity ratio with respect to FPOX-16 (FPOX-16 defined as 1) amounted to 2.2.
As to B30, the Activity ratio (glycated hexapeptide oxidase activity, FPOX-15 defined as 1) came to 46.5.
Same read-out and setting: for B31 the value was 41.1; for B32, 0; for B33, 16.2.

Values taken from patent US20160138073.
